From US20240391959A1, “BICYCLIC PEPTIDE LIGANDS […] FOR TRANSFERRIN RECEPTOR 1 (TfR1)” (BicycleTx Limited, priority 2020, published 2024)

By UniProt entry, the sequences of proteins in these tests, tags left out. Residues count along the entry.
UniProt P02786, whole entry: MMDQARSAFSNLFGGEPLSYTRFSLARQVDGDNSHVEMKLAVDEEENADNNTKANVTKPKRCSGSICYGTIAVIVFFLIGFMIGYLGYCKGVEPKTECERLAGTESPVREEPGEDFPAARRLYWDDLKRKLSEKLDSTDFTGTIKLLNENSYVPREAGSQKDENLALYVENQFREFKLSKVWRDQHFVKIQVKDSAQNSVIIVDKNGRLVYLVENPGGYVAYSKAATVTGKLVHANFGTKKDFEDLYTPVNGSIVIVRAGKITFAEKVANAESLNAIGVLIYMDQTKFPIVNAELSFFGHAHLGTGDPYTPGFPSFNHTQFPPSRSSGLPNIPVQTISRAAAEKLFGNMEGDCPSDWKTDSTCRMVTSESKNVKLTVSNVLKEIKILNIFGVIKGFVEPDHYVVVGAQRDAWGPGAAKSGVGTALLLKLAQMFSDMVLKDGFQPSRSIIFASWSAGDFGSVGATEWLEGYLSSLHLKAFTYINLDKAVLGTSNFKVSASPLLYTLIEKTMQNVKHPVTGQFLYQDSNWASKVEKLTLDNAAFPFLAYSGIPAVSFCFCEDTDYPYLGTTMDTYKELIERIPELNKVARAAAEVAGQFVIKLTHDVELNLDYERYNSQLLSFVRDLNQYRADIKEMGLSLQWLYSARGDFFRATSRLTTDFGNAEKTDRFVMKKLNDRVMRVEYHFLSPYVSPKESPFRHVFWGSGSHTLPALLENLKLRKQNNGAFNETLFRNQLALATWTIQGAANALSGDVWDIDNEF
UniProt P02786, 89-760: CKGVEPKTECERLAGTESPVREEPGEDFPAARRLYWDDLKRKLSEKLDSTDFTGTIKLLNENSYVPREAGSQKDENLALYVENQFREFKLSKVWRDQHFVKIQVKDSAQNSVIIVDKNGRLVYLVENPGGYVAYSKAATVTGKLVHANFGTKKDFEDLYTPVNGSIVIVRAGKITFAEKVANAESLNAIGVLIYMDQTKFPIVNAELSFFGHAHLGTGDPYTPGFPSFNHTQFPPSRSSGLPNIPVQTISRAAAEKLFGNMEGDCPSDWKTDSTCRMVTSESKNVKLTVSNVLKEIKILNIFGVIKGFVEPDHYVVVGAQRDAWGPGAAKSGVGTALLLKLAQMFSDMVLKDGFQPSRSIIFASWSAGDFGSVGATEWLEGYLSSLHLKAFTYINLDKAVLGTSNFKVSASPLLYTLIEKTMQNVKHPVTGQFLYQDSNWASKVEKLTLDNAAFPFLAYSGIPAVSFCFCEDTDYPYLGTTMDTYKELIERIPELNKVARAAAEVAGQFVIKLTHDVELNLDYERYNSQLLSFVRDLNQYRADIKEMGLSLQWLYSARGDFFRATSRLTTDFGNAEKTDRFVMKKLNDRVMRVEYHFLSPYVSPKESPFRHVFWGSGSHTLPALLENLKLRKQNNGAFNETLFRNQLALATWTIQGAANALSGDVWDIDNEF

Tests used:
human TfR1 [1] = target: T1, human TfR1 (Homo sapiens, UniProt P02786); test: TfR1 inhibition assay (Alpha assay, transferrin inhibition); format: binding
Experimental: TfR1 inhibitory activity of peptides of the invention (IC50) was determined using Alpha assay, in accordance with the following method. Proteins, peptides and Alpha reagents were prepared to 5× concentration and 5 μl of each reagent added to 25 μl total volume in white 384-well Optiplate to make 1× final concentration. Fluorescently labelled human transferrin (Invitrogen, T2871) was diluted to 2.5 nM in 25 mM HEPES with 100 mM NaCl, 4 mM CaCl2, 0.5% BSA and 0.05% P20, pH 7.4. Human or cynomolgus TfR1 protein was diluted to 50 nM and unlabelled human transferrin (R&D Systems, 2914-HT) was diluted to 500 nM in the same assay buffer. Non-labelled peptides from DMSO stock were diluted 20-fold in the same assay buffer, followed by 1 in 3 serial dilution in assay buffer containing 5% DMSO to give 11-different concentrations. 5 μl fluorescently labelled transferrin, 5 μl human or cynomolgus TfR1, 5 μl non-labelled peptide or unlabelled human transferrin (R&D Systems, 2914-HT) were added to white 384-well Optiplate and incubated for 30 min. Anti-FITC Acceptor (PerkinElmer, AL127) was diluted 50-fold in assay buffer, 5 μl added to assay plate and incubated for 30 min. […] Luminescence measurements were conducted on a BMG PHERAstar FS or FSX equipped with an AlphaScreen 520-620 module at 25° C. following excitation at 680 nm. […]

human TfR1 [2] = target: T1, human TfR1; test: biochemical; format: binding; parameters: His6-tagged TfR1 (a.a. 89-760) (ACRO Biosystems, CD1-H5243 and TFR-C524a); His6; purchased R&D Systems or Acro Biosystems 2474-TR or CD1-H5243

SMILES | IC50 (human TfR1 [1]) | Kd (human TfR1 [2])
CC(C)C[C@@H]1NC(=O)[C@@H](NC(=O)[C@H](C)N)CSCCC(=O)N2CN3CN(C2)C(=O)CCSC[C@@H](C(=O)N[C@@H](C)C(N)=O)NC(=O)[C@H](CO)NC(=O)[C@H](Cc2ccc(O)cc2)NC(=O)[C@H](Cc2c[nH]c4ccccc24)NC(=O)[C@H](Cc2ccc(O)cc2)NC(=O)[C@H](C(C)C)NC(=O)CNC(=O)[C@H](CC(=O)O)NC(=O)[C@H](Cc2ccc(O)cc2)NC(=O)[C@H](CSCCC3=O)NC(=O)[C@H](C)NC(=O)[C@H](CCC(=O)O)NC1=O [BCY12454, A-(SEQ ID NO: 3)-A] | 893 nM | 
CC(=O)N[C@H]1CSCCC(=O)N2CN3CN(C2)C(=O)CCSC[C@H](NC(=O)CNC(=O)[C@H](CC(C)C)NC(=O)[C@H](Cc2ccc(O)cc2)NC(=O)[C@H](C)NC(=O)[C@H](CC(=O)O)NC(=O)[C@@H]2C[C@@H](O)CN2C(=O)[C@@H]2CCCN2C1=O)C(=O)N[C@@H](C(C)(C)C)C(=O)N[C@@H](CO)C(=O)N[C@@H](Cc1ccc(O)cc1)C(=O)N[C@H](C(N)=O)CSCCC3=O [BCY20546, Ac-(SEQ ID NO: 13)] |  | 1660 nM
CC(C)C[C@@H]1NC(=O)[C@H](C)NC(=O)[C@@H](NC(=O)[C@H](C)N)CSCCC(=O)N2CN3CN(C2)C(=O)CCSC[C@H](NC1=O)C(=O)N[C@@H](CC(N)=O)C(=O)N[C@@H](CC(=O)O)C(=O)N[C@@H](Cc1c[nH]c2ccccc12)C(=O)N[C@@H]([C@@H](C)O)C(=O)N[C@@H](CC(C)C)C(=O)N1CCC[C@H]1C(=O)N[C@@H](Cc1c[nH]c2ccccc12)C(=O)N[C@@H](Cc1c[nH]cn1)C(=O)N[C@@H](Cc1c[nH]cn1)C(=O)N[C@H](C(=O)N[C@@H](C)C(N)=O)CSCCC3=O [BCY12455, A-(SEQ ID NO: 1)-A] | 673 nM | 
